Assay [1] in a line: ATG_M_32_CIS: Attagene CIS-FACTORIAL HepG2 Assay for M32 Transcription Factor (Internal Marker) (AID 2282949).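 Further: background control marker of the multiplexed CIS panel rather than a real target.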 The conditions noted are these: HepG2 Attagene cis-factorial M32 reporter, mRNA; actives raise or lower the signal. The method in brief:
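Fluorescent capillary electrophoresis peaks of HpaI-digested, FAM-labelled RT-PCR reporter products give the signal. Source: transiently transfected human liver HepG2 cells, 24 h after chemical dosing; bidirectional fitting against DMSO.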

The chains behind the UniProt entries cited, without tags or fusion partners. Where a name states a change or a piece, a line headed by the entry shows the natural chain unless it says otherwise.
UniProt Q16665, whole entry, looked up: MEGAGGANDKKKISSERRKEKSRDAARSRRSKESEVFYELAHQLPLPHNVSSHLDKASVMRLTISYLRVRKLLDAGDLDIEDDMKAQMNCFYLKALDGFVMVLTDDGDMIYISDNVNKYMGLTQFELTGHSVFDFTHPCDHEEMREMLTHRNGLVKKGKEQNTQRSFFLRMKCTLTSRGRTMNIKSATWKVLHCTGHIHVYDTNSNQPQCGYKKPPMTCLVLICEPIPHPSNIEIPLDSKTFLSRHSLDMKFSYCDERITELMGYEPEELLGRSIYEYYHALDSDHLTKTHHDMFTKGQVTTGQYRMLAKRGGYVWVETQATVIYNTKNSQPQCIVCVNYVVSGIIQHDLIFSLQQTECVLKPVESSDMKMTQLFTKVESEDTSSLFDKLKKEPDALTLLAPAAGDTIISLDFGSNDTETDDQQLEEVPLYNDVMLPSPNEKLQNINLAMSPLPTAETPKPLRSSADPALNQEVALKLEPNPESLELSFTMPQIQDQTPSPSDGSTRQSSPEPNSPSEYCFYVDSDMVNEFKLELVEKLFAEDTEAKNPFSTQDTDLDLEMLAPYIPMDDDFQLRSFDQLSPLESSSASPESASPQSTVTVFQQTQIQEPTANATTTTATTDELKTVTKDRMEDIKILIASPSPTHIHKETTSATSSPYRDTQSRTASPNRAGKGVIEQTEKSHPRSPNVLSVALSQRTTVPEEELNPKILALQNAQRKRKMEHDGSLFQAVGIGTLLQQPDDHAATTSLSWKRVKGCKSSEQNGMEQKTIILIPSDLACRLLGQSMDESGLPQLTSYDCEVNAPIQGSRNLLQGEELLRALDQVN
UniProt Q00613: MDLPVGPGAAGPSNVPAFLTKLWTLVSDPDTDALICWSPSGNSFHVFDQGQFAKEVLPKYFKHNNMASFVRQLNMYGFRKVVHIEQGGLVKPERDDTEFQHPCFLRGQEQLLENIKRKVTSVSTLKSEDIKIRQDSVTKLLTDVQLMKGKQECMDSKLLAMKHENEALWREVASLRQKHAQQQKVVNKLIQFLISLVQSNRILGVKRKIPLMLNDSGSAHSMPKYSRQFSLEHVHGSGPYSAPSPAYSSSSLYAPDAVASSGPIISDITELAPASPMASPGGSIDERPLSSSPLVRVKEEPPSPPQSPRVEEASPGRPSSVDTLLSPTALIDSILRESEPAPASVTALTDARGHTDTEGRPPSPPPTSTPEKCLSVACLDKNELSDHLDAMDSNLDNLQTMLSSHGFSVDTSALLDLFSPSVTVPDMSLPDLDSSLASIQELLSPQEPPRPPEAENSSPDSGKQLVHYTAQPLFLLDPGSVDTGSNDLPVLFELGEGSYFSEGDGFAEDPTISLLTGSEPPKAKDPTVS
UniProt P26367: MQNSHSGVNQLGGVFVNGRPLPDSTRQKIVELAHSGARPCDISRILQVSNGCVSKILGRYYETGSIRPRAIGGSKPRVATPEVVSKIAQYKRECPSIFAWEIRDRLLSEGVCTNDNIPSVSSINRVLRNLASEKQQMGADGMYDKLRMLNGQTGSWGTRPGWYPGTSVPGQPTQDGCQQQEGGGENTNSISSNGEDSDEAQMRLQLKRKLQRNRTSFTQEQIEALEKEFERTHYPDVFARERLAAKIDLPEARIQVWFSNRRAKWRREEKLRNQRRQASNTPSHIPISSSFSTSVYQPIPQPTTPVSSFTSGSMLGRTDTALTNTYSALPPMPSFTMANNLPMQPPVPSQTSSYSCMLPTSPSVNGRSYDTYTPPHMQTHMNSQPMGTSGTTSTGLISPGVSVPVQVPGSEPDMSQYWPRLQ
UniProt P08047, whole entry, looked up: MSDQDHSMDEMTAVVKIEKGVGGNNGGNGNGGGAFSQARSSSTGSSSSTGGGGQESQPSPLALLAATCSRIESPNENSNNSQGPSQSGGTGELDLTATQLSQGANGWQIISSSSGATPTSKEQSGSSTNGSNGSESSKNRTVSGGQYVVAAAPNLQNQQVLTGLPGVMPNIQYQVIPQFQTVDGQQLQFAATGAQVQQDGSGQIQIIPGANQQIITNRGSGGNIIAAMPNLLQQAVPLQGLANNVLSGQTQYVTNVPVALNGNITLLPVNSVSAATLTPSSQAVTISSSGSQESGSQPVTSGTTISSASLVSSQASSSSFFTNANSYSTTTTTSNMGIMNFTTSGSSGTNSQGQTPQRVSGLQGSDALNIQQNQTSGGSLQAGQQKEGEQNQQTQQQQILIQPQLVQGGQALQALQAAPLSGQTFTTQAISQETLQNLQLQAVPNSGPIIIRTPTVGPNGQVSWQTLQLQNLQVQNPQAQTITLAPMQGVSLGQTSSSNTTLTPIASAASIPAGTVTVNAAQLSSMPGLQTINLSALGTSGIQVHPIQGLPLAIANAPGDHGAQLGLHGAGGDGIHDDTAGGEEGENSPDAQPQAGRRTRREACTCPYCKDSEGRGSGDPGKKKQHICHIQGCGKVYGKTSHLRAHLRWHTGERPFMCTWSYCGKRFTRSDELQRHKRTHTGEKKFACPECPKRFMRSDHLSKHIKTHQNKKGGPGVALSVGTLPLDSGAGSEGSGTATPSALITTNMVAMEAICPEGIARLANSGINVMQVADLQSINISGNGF
UniProt P40763, whole entry, looked up: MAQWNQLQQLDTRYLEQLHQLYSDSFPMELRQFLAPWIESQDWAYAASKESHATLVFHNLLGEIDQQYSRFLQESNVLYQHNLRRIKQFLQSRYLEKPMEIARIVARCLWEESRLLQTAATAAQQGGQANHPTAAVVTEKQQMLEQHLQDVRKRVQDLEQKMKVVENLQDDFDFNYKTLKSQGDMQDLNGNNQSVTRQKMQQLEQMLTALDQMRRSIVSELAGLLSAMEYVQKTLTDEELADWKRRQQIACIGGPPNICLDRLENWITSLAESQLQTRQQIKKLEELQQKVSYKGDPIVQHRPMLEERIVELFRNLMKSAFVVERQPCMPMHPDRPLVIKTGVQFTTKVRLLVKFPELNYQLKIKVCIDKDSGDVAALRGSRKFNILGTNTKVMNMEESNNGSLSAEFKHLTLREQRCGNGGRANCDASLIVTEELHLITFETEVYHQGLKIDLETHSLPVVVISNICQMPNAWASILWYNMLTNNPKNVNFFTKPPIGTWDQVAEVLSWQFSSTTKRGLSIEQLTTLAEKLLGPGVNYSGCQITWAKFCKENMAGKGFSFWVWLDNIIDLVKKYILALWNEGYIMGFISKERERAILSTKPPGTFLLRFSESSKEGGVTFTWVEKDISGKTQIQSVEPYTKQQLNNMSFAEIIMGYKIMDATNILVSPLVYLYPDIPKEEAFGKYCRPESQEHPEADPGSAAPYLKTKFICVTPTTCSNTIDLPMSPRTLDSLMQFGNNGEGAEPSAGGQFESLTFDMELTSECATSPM
UniProt Q14994: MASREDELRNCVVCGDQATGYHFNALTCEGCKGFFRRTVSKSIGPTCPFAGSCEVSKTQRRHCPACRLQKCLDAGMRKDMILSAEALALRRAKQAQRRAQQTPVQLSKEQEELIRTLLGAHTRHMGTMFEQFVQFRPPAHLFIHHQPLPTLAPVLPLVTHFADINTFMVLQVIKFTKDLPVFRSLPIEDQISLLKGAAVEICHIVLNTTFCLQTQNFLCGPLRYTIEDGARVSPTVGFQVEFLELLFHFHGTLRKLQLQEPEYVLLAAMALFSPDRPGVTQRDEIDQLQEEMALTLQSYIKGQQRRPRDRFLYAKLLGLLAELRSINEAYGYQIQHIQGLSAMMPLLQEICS
UniProt P03372, whole entry, looked up: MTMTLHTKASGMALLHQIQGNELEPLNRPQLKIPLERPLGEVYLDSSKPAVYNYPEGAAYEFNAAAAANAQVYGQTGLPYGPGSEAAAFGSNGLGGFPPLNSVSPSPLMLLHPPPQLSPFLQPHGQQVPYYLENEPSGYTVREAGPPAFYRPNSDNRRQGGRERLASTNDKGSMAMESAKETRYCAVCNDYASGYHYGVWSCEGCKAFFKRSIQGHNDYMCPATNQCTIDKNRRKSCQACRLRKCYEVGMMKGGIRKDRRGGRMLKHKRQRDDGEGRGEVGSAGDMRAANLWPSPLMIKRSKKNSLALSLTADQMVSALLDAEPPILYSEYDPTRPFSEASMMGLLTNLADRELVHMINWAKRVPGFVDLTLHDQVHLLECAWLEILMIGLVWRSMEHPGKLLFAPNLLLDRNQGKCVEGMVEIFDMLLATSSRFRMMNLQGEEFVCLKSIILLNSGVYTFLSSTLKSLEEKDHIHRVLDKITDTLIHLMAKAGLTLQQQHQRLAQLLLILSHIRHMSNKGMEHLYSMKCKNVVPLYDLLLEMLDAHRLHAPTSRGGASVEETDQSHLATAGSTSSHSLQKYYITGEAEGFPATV
UniProt P11474: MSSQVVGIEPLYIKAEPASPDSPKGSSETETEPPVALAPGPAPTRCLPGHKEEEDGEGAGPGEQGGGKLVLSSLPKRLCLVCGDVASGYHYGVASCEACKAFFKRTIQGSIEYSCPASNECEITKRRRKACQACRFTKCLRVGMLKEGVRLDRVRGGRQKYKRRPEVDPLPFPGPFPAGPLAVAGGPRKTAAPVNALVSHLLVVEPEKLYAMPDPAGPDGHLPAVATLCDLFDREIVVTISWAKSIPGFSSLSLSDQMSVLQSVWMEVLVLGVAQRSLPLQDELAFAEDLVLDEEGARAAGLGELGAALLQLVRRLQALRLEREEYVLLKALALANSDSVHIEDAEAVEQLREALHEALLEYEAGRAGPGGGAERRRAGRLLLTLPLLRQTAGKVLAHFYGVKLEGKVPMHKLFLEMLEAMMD

Assay [2] in a line: ATG_M_06_CIS: Attagene CIS-FACTORIAL HepG2 Assay for M06 Transcription Factor (Internal Marker) (AID 2282950). The conditions noted are these: HepG2 Attagene CIS-FACTORIAL M06 internal marker reporter; actives raise or lower the signal. The method in brief: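 HepG2 cells transiently transfected with cis-regulated multiple reporter transcription units were exposed to chemical for 24 h; reporter mRNA was quantified by RT-PCR, 6-FAM primer labelling, HpaI digestion and capillary electrophoresis, fitted bidirectionally against DMSO.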

The target in assay [3] is Hypoxia-inducible factor 1-alpha (Homo sapiens) (UniProt Q16665). The experiment in a line: ATG_HIF1a_CIS: Attagene CIS-FACTORIAL HepG2 Assay for human Hypoxia Inducible Factor 1 (HIF1A) (AID 2282951). Conditions: HepG2 Attagene cis-factorial HIF1a reporter transcription; actives raise or lower the signal. The procedure, abridged:
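Transient MRTU transfection of human HepG2 liver cells, 24 h compound treatment, then total RNA isolation, oligo(dT) reverse transcription, PCR amplification, fluorescent labelling and capillary electrophoresis of reporter fragments. Gain or loss relative to DMSO.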

Assay [4] deals with Heat shock factor protein 1 (Homo sapiens) (UniProt Q00613). The experiment in a line: ATG_HSE_CIS: Attagene CIS-FACTORIAL HepG2 Assay for human Heat Shock Transcription Factor 1 (HSE) (AID 2282953). Conditions: HepG2 HSE cis-reporter, Attagene RNA transcription; actives raise or lower the signal. The procedure, abridged: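 HepG2 cells transiently transfected with multiple reporter transcription units under cis-regulatory promoter control, measuring endogenous transcription factor activity. After 24 h chemical exposure, reporter mRNA quantified by RT-PCR, fluorescent labelling, HpaI digestion and capillary electrophoresis; bidirectional fit versus DMSO.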

The nature of assay [5]: ATG_MRE_CIS: Attagene CIS-FACTORIAL HepG2 Assay for human Metal Responsive Element (MRE) (AID 2282954). Conditions: HepG2 MRE cis-reporter transcription, Attagene multiplex; actives raise or lower the signal. The method in brief: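 Step one: transfect HepG2 with cis-regulated reporter units. Step two: dose 24 h. Step three: isolate RNA, RT-PCR, 6-FAM label, HpaI digest, capillary electrophoresis. Fit bidirectionally to DMSO.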

The nature of assay [6]: ATG_PBREM_CIS: Attagene CIS-FACTORIAL HepG2 Assay for human Phenobarbital-responsive Enhancer Module (PBREM) (AID 2282955). The conditions noted are these: HepG2 PBREM cis-reporter, Attagene multiplexed transcription; actives raise or lower the signal. The procedure, abridged: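 Endogenous transcription factors in human liver HepG2 cells drive a PBREM cis-element reporter, whose transcript level after 24 h treatment is quantified by RT-PCR with capillary electrophoresis; activity fitted in both directions against DMSO.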

Assay [7] deals with Paired box protein Pax-6 (Homo sapiens) (UniProt P26367). The experiment in a line: ATG_Pax6_CIS: Attagene CIS-FACTORIAL HepG2 Assay for human Paired Box 6 (PAX6) (AID 2282956). The conditions noted are these: HepG2 CIS-FACTORIAL PAX6 reporter transcription, RNA readout; actives raise or lower the signal. The procedure, abridged: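 Transient MRTU transfection of HepG2 → compound exposure 24 h → TriZol RNA, oligo(dT) RT → PCR, 6-FAM primer extension, HpaI cut → capillary electrophoresis; activity fitted both directions against DMSO.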

The nature of assay [8]: ATG_PPRE_CIS: Attagene CIS-FACTORIAL HepG2 Assay for human Peroxisome Proliferator-activated Response Element (PPRE) (AID 2282958). The conditions noted are these: HepG2 PPRE cis-element reporter, Attagene transcription factor profiling; actives raise or lower the signal. The method in brief: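 HepG2, transient MRTU transfection (cis promoter elements, endogenous TFs). 24 h dosing. RNA → oligo(dT) RT → PCR → 6-FAM primer extension → HpaI digest → CE. Bidirectional fit vs DMSO.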

Assay [9] is described as follows: ATG_RORE_CIS: Attagene CIS-FACTORIAL HepG2 Assay for human RAR-related Orphan Receptor Element (RORE) (AID 2282959). The conditions noted are these: HepG2 Attagene cis-factorial RORE reporter, mRNA; actives raise or lower the signal. The procedure, abridged: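 Transient MRTU transfection of human HepG2 liver cells (FuGene 6); 24 h compound exposure; TriZol RNA, oligo(dT) RT, PCR, FAM labeling, HpaI cut, CE fragment analysis. DMSO = negative control/baseline.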

Assay [10] deals with Transcription factor Sp1 (Homo sapiens) (UniProt P08047). Briefly: ATG_Sp1_CIS: Attagene CIS-FACTORIAL HepG2 Assay for human Specificity Protein 1 (Sp1) (AID 2282961). Conditions: HepG2 Sp1 cis-reporter transcription, actives raise or lower the signal. The procedure, abridged:
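Transient MRTU-transfected HepG2, 24 h compound exposure. Total RNA → oligo(dT) RT → PCR of reporter → 6-FAM primer extension → HpaI digest → CE. Endpoint fitted both directions vs DMSO.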

The target of assay [11] is Signal transducer and activator of transcription 3 (Homo sapiens) (UniProt P40763). Briefly: ATG_STAT3_CIS: Attagene CIS-FACTORIAL HepG2 Assay for human Signal Transducer and Activator of Transcription 3 (STAT3) (AID 2282963). Conditions: HepG2, Attagene cis-factorial STAT3 reporter transcription; actives raise or lower the signal. The procedure, abridged: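 Transcript-level reporter assay. HepG2 transient MRTU transfection, 24 h exposure, fluorescence detection after RT-PCR and CE; DMSO baseline.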

Assay [12] can be described thus: ATG_TA_CIS: Attagene CIS-FACTORIAL HepG2 Assay for human TA Basal Promoter (AID 2282964). The conditions noted are these: HepG2 Attagene CIS-factorial TA basal promoter reporter; actives raise or lower the signal. The method in brief: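 HepG2 cells transiently transfected with multiplexed cis-promoter reporter units, dosed 24 h. Reporter mRNA measured by RT-PCR, 6-FAM labelling, HpaI digestion and capillary electrophoresis; bidirectional fit versus DMSO baseline, serving as background control.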

A short description of assay [13]: ATG_TCF_b_cat_CIS: Attagene CIS-FACTORIAL HepG2 Assay for human T-Cell-Factor with beta-catenin (TCF/b-cat) (AID 2282965). Conditions: HepG2 TCF/beta-catenin cis-reporter transcription, actives raise or lower the signal. The method in brief: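 Using capillary electrophoresis as the read-out, labelled reporter cDNA fragments from transiently transfected HepG2 were sized and quantified. Exposure lasted 24 hours; activity in either direction was referenced to DMSO.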

Assay [14] can be described thus: ATG_TAL_CIS: Attagene CIS-FACTORIAL HepG2 Assay for human TAL Basal Promoter (AID 2282966).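 Further: background control endpoint measuring basal TAL promoter reporter mRNA not a specific factor.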 Conditions: HepG2 Attagene cis-factorial TAL promoter reporter; actives raise or lower the signal. The method in brief: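 HepG2 cells were transiently transfected with promoter-driven multiplexed reporter units and dosed for 24 h. Reporter mRNA was measured by RT-PCR with capillary electrophoresis fluorescence; bidirectional fits used DMSO as baseline, serving as a background control.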

Assay [15] is described as follows: ATG_TGFb_CIS: Attagene CIS-FACTORIAL HepG2 Assay for human Transforming Growth Factor (TGF) (AID 2282967). The conditions noted are these: HepG2 Attagene CIS TGFb reporter, mRNA transcription; actives raise or lower the signal. The procedure, abridged:
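HepG2 cells transiently transfected with cis-promoter-driven multiplexed reporter units; 24 h compound exposure. Reporter mRNA measured by RT-PCR, 6-FAM labeling, HpaI digestion and capillary electrophoresis; bidirectional fit versus DMSO baseline.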

Assay [16] is described as follows: ATG_VDRE_CIS: Attagene CIS-FACTORIAL HepG2 Assay for human Vitamin D Receptor Element (VDRE) (AID 2282968). The conditions noted are these: HepG2 VDRE cis-reporter transcription, actives raise or lower the signal. The procedure, abridged:
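RT-PCR/CE readout of reporter mRNA; HepG2, transient transfection, 24 h dosing; DMSO baseline; bidirectional analysis.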

Assay [17] addresses Nuclear receptor subfamily 1 group I member 3 (Homo sapiens) (UniProt Q14994). The experiment in a line: ATG_CAR_TRANS: Attagene TRANS-FACTORIAL HepG2 Assay for human Constitutive Androstane Receptor (CAR) (AID 2282969; active means hit-call score of the fitted dose curve at least 0.9, where 1 is the maximum;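 further: activators raise reporter mRNA above DMSO so AC50 marks induction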). Conditions: HepG2 Attagene TRANS-FACTORIAL CAR reporter. The procedure, abridged: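 HepG2 cells transiently transfected with multiplexed GAL4-UAS reporter units expressing chimeric NR-Gal4 proteins; compound exposure 24 h. Reporter mRNA measured by RT-PCR, 6-FAM labelling, HpaI digestion and capillary electrophoresis; gain-of-signal fitted against DMSO baseline.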

Assay [18] deals with Estrogen receptor (Homo sapiens) (UniProt P03372). Briefly: ATG_ERa_TRANS: Attagene TRANS-FACTORIAL HepG2 Assay for human Estrogen Receptor alpha (ERa) (AID 2282970; active means hit-call score of the fitted dose curve at least 0.9, where 1 is the maximum). Conditions: HepG2 Attagene TRANS ERa GAL4 reporter, mRNA. The procedure, abridged:
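HepG2 cells transiently transfected with multiplexed GAL4-UAS reporter units; ERa activity read via exogenous chimeric NR-Gal4 protein. After 24 hour compound exposure, reporter mRNA measured by RT-PCR with 6-FAM labelling and capillary electrophoresis; gain-of-signal fitted relative to DMSO.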

A short description of assay [19]: ATG_PXRE_CIS: Attagene CIS-FACTORIAL HepG2 Assay for human Pregnane X Receptor Element (PXRE) (AID 2282957). Conditions: HepG2 Attagene CIS-FACTORIAL PXRE reporter, mRNA; actives raise or lower the signal. The procedure, abridged: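 HepG2 cells transiently transfected with cis-regulated multiple reporter transcription units; endogenous factor activity measured as reporter mRNA 24 h after dosing. RT-PCR, fluorescent primer extension, HpaI digestion, capillary electrophoresis; bidirectional fit versus DMSO baseline.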

The target in assay [20] is Steroid hormone receptor ERR1 (Homo sapiens) (UniProt P11474). The experiment in a line: ATG_ERRa_TRANS: Attagene TRANS-FACTORIAL HepG2 Assay for human Estrogen-Related Receptor alpha (ERRa) (AID 2282971; active means hit-call score of the fitted dose curve at least 0.9, where 1 is the maximum). Conditions: HepG2 Attagene TRANS reporter, ERRa transactivation. The method in brief: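 HepG2 cells transiently transfected with multiplexed GAL4-UAS reporter units reading chimeric ERRa-Gal4 activity; 24 h compound exposure. Reporter mRNA measured by RT-PCR, 6-FAM labelling, HpaI digest and capillary electrophoresis; gain of signal fitted versus DMSO baseline.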

This note sets out measurements from PubChem BioAssay (EPA / NIEHS).

This is a selection; strong and weak results do not stand in their true shares. Records with an inconclusive call do not appear. The source made the active and inactive calls. How the source made its calls, unless noted: active means hit-call score of the fitted dose curve at least 0.9, where 1 is the maximum; inactive means score below 0.9.

A word on the AC50: it is the midpoint of the concentration-response curve, whichever way the signal moves. As for `CCCCOP(OCCCC)OCCCC`, the outcome in assay [1], in assay [2], in assay [3], in assay [4], in [5] and in assay [6] was inactive. Besides, the molecule was called inactive in assay [7], in assay [8], in assay [9], in [10], in assay [11] and in assay [12]. Also, the call in assay [13], in assay [14], in assay [15], in [17] and in assay [18] was inactive. In addition, the AC50 in assay [16] is active: 26100 nM.
Take `O=C(Cl)Oc1ccccc1`: the molecule was classed as inactive in [1], in [2], in assay [3], in assay [4], in assay [5] and in [6]. The outcome in [7], in assay [19], in assay [8], in assay [9], in assay [10] and in assay [11] was inactive. For the same molecule, the molecule was classed as inactive in assay [12], in assay [13], in assay [14], in assay [15], in assay [17] and in assay [20]. In assay [16], the AC50 is active: 83.4 nM.
As to `O=C1C2CC=CCC2C(=O)N1SC(Cl)(Cl)C(Cl)Cl` (stereo unspecified), the outcome in [1], in assay [2], in assay [3], in assay [4], in assay [5] and in [6] was inactive. In addition, the molecule was called inactive in assay [7], in assay [8], in [10], in assay [11], in assay [12] and in [13]. The outcome in assay [14], in [15], in [16], in assay [17] and in assay [20] was inactive. Besides, the AC50 in assay [19] is active: 365 nM.
As to `CCCCO[P+](=O)OCCCC`, the call in assay [1], in assay [2], in [3], in assay [4], in assay [5] and in [6] was inactive. Besides, the molecule was called inactive in assay [7], in assay [19], in assay [9], in [10], in [11] and in [12]. The molecule was called inactive in assay [13], in assay [14], in assay [15] and in [16].
